pKi: −log10 of the molar value.
Molecular target: Mu-type opioid receptor (Mus musculus, UniProt P42866)
Assay: Binding affinity against opioid receptor by displacing radioligand [3HlU69,593

Protein sequences, listed by entry. Tags and fused reporters are not part of them.
UniProt P42866, whole entry, looked up: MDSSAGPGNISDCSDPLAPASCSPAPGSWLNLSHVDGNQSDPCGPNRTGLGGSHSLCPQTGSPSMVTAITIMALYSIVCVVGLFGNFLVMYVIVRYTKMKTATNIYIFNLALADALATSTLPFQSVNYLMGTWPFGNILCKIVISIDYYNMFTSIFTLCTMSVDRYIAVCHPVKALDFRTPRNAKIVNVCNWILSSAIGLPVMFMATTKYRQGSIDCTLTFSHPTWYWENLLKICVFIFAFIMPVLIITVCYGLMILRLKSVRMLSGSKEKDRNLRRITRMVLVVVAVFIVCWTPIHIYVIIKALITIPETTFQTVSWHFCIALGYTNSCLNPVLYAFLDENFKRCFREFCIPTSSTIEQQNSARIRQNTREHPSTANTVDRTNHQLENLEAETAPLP

In the case of CN(C(=O)Cc1ccccc1)[C@H]1C[C@@]2(CCCO2)CC[C@@H]1N1CCCC1, the pKi was 8.92.

— BindingDB's records for 7932569 (Virginia Commonwealth University, 1994)
